Tested on: Rb phosphorylation at threonine 821 in Jurkat cells
Details: various concentrations, 36 hours prior to lysis, lysates normalized for total Rb, FIG. 12

CN[C@@H]1C[C@H]2O[C@@](C)([C@@H]1OC)n1c3ccccc3c3c4c(c5c6ccccc6n2c5c31)C(=O)NC4 [staurosporine]
Levels of Rb phosphorylation at threonine 821: inhibits the phosphorylation of Rb at threonine 821

— patent US7888050B2, “Method for quantifying phosphokinase activity on proteins” (Life Technologies Corporation, priority 2000, dated 2011)
